Values of other authors, collected in US20100190706A1, “Stable Non-Aqueous Pharmaceutical Compositions” (NOVO NORDISK A/S, priority 2007, published 2010).

Details: cited from earlier work

## insulin
  retained and metabolized in first passage through the liver: roughly 60%
